Source: patent US20250026716A1, “SYNTHESIS PROCESS OF FATTY ACYL TAURINE SALT” (ZHANGJIAGANG GREAT CHEMICAL CO., LTD., priority 2021, published 2025)

Test system: chicken embryo chorioallantoic membrane
Experiment: Irritancy (stimulus) test, chicken embryo chorioallantoic membrane method
Text: Perform irritancy test on products prepared in Examples 2-3 and Comparative Examples 2-3, using the chicken embryo chorioallantoic membrane method, as shown in Table 5.

Row | Molecule | Coagulation time | Hemolysis time | Bleeding time | IS value
1 | CCCCCCCCCCCC(=O)NCCS(=O)(=O)O.[Na] [Example 2, sodium lauroyl taurine] | 301 | 301 |  | 
2 | lauroyl-sodium methyl taurate [Comparative Example 2] | 301 | 116.5 | 9.8 | 9.16
3 | lauroyl-sodium methyl taurate [Comparative Example 3] | 301 | 136.2 | 8.5 | 8.72
4 | sodium cocoyl taurine [Example 3] | 301 | 301 | 39.5 | 4.36
